Results reported in US6683162B2, “Targeted alpha particle therapy using actinium-255 conjugates” (Sloan Kettering Institute of Cancer Research, priority 2000, dated 2004).

System: human BT-474 breast carcinoma cells
Test: In vitro cytotoxicity (LD50), BT-474
Assay type: cell-based
Conditions: BT-474 (specific); S.A. 1.9 GBq/g
Procedure: The potency and specificity of 225Ac-HuM195-DOTA was then evaluated in-vitro as a function of specific activity and activity concentration (FIG. 6). A suspension of HL60 cells were washed twice with complete media and then dispensed into a 96 well cell culture plate in complete media supplemented with 2% human serum. The volume was 100 μl and the cells were at a density of 5×10^5 cells/ml. Next a serial dilultion of purified ^225Ac-HuM195-DOTA was added to the wells. The diluent was complete media and volume added was 100 μl. The starting activity was 10 nCi/ml, which was diluted 5-fold for each subsequent tube. […] The cells were incubated for 2 days at 37° C., following which tritiated thymidine was added (0.5 pC, in 50 il complete media/well). The cells were incubated at 37° C. for an additional 5 h, then harvested using a Combi Cell Harvestor (Skatron Instruments). Cell viability was determined by analyzing the degree of tritiated thymidine incorporated into the DNA of the treated cells relative to control cells.
The potency and specificity of [225Ac]IgG for killing single cancer cells is determined using 5E4 cells in 0.2 mL per well in 96 well plates. […] Non-specific killing is measured after target cells are blocked with a 100-10000-fold excess of unlabeled IgG before plating and subsequent addition of [225Ac]IgG.

Substance: [Ac-225]Herceptin: 225Ac generator on Herceptin, humanized IgG1 directed against HER2
- LD50: 5.6 Bq/mL
